From US6768024B1, “Triamine derivative melanocortin receptor ligands and methods of using same” (Lion Bioscience AG, priority 2000, dated 2004)

Amino acid sequences for entries named in this document (tags omitted).
UniProt P33032, whole entry: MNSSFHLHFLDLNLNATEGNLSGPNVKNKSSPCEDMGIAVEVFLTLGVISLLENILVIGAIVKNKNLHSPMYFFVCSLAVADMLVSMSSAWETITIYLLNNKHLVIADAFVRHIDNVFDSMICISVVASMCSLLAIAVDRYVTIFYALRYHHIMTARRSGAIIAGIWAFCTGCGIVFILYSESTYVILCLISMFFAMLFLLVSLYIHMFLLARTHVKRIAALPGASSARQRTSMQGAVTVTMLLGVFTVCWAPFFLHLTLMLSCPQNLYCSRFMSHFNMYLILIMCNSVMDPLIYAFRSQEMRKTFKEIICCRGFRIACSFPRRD
UniProt P32245, whole entry: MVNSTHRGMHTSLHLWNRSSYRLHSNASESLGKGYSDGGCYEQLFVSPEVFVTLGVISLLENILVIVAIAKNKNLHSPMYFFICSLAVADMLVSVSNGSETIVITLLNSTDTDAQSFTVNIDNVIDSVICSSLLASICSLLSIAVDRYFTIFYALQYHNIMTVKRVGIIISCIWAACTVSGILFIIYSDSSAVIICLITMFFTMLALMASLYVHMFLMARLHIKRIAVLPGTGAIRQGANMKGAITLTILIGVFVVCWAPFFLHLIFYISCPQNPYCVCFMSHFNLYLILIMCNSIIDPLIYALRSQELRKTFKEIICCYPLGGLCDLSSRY
UniProt P41968, whole entry: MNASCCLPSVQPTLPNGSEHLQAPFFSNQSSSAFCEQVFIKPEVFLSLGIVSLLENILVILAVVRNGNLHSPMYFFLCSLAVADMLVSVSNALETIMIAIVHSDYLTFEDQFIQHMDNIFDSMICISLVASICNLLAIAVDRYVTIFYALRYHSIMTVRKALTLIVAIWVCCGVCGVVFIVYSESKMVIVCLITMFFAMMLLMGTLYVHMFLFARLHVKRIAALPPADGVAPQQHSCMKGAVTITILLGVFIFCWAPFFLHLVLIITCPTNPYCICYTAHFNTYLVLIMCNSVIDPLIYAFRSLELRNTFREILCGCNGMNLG
UniProt Q01726, whole entry: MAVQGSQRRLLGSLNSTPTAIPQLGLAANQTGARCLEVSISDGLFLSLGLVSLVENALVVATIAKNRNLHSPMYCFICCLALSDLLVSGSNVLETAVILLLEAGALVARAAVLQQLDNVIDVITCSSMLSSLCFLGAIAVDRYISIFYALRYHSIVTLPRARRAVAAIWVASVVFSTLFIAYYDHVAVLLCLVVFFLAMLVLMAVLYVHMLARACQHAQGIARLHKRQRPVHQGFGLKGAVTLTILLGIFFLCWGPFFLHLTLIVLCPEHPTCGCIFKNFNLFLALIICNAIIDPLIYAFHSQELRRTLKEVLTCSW

Tests used:
hMC-5 = hMC-5 (Homo sapiens, UniProt P33032); assay: Melanocortin receptor binding assay, competition with 125I-HP 467; conditions: for IC50: read-out: MC-5 IC50, 50% inhibition of binding of 125I-HP 467, HEK-293 membranes
Description: (§1) HEK-293 cell lines were transfected with the human melanocortin receptors hMC1, hMC3, and hMC4 were obtained from Dr. Ira Gantz, as described in Gantz, I. et al., Biochem. Biophys. Res. Comm., 3:1214-1220 (1994); Gantz et al., J. Biol. Chem., 268:8246-8250 (1993); Gantz et al., J. Biol. Chem., 268:15174-15179 (1993); and Haskell-Leuvano et al., Biochem. Biophys. Res. Comm., 204:1137-1142 (1994).
(§2) Vectors for construction of an hMC-5 expressing cell line were also obtained from Dr. Ira Gantz, as described in the above references, and a line of HEK-293 cells expressing hMC-5 was constructed. HEK-293 cell lines were maintained in DMEM containing 25 mM HEPES, sodium pyruvate, 10% Cosmic Calf serum, 100 units/ml penicillin, 100 μg/ml streptomycin, 2 mM glutamine, non-essential amino acids, vitamins and 0.2 mg/ml G418 to maintain selection.
(§3) HEK-293 cells stably expressing the MC Receptors were grown to confluency in 175 cm^2 flasks. 3 flasks were washed in 30 ml room temperature phosphate buffered saline (Cellgro) per flask, and harvested using a rubber scraper in 5 ml ice-cold PBS per flask. The cells were combined into one test tube, homogenized using a Polytron homogenizer (3 bursts of 10 seconds) and centrifuged at 32,000× g for 20 min at 4° C.
(§4) Membranes were washed as follows: the pellet obtained after centrifugation was resuspended in 20 ml ice-cold hypotonic buffer, (20 mM Tris-HCl, 5 mM EDTA, pH 7.7 at 4° C.), dispersed using a 8 strokes in a teflon/glass homogenizer and recentrifuged as decribed above. The final pellet was resuspended in 3 ml ice cold suspension buffer (20 mM HEPES, 10 mM NaCl, 1.26 mM CaCl2, 0.81 mM MgSO4, 0.22 mM KH2PO4, 10% w/v Sucrose, pH 7.4), giving a protein concentration of approx. 2 mg/ml. Protein concentration was measured by a BCA assay (Pierce), using bovine serum albumin as standard. The crude membrane preparation was aliquoted, flash-frozen in liquid nitrogen and stored at −80° C.
(§5) Before use in assays, each membrane preparation was tested and the protein concentration to give 3000 counts of total binding is determined. Typically, 6 μg/ml for MC-1, 1.5 μg/ml for MC-3, 1.5 μg/ml for MC-4, and 1 μg/ml for MC-5 give 3000 counts in the assay.
(§6) Binding assays were performed in a total volume of 250 μl. Triamines and other compounds were dissolved in DMSO and diluted in PBS to give no more than 2.5% DMSO (0.25% final in the assay), and 25 μl of test compound is added to each tube. 50,000 dpm of ^125I labeled HP 467 (Ac-Nle-Gln-His-(p(I)-D-Phe)-Arg-(D-Trp)-Gly-NH2, with the iodo group radioactively labeled; see WO 99/21571)(in 25 μl) prepared in 50 mM Tris pH 7.4, 2 mg/ml BSA, 10 mM CaCl2, 5 mM MgCl2, 2 mM EDTA were added to each tube. ^125I-HP 467 was custom labeled by Amersham to a specific activity of 2000 Ci/mmol. Membranes were thawed and resuspended in ice-cold suspension buffer without sucrose at the protein concentration determined above, and 200 μl were added to each tube. Assays were incubated for 90 minutes at room temperature.
(§7) GF/B filter plates (Packard Instrument Co.) were prepared by soaking for at least one hour in 0.5% v/v polyethyleneimine. Assays were filtered using a Brandel 96-well cell harvester. The filters were washed four times with cold 50 mM Tris, pH 7.4. Filter plates were dehydrated for 2 hours and 35 μl of Microscint (Packard Instrument Co.) added to each well. Filter plates were counted using a Packard Topcount and data analyzed in MDL Screen (MDL Information Systems, Inc.).
(§8) Various triamine derivatives were tested for in vitro binding activity to HEK 293 cells expressing MCR-1, MCR-3, MCR-4 or MCR-5 as described in Example II. Tables 1 to 3 above show the IC50 values, the concentration giving 50% inhibition of binding of ^125I-HP 467, for various triamine derivatives.

hMC4 = hMC4 (Homo sapiens, UniProt P32245); assay: as above; conditions: 50% inhibition of binding of 125I-HP 467, HEK-293 membranes; for IC50: read-out: MC-4 IC50
Description: as §1, §2, §3, §4, §5, §6, §7, §8

hMC3 = hMC3 (Homo sapiens, UniProt P41968); assay: as above; conditions: read-out: MC-3 IC50; 50% inhibition of binding of 125I-HP 467; HEK-293 membranes
Description: as §1, §2, §3, §4, §5, §6, §7, §8

hMC1 = hMC1 (Homo sapiens, UniProt Q01726); assay: as above; conditions: read-out: MC-1 IC50; 50% inhibition of binding of 125I-HP 467; HEK-293 membranes
Description: as §1, §2, §3, §4, §5, §6, §7, §8

MCR-3 = MCR-3 (Homo sapiens, UniProt P41968); assay: cAMP assay for melanocortin receptor agonism; conditions: 50% of maximal cAMP production; HEK 293 cells
Description: (§9) HEK 293 cells expressing MCR-1, MCR-3, MCR-4 and MCR-5 were used (see Example II). Cells were plated at 20,000 cells per well in a 96-well plate coated with collagen Biocoat (Becton Dickinson). The next day, cells were pretreated with 75 μl of 0.4 mM 3-isobutyl-1-methylxanthine (IBMX) in low serum medium containing DMEM, 25 mM HEPES, non-essential amino acids, vitamins, 100 units/ml penicillin, 100 μg/ml streptomycin and 0.1% COSMIC CALF SERUM. IBMX is an inhibitor of cAMP phosphodiesterase. The pretreatment was carried out for 10 min at 37° C.
(§10) Following pretreatment, 25 μl of diluted triamine derivative was added to the wells, and cells were incubated for 15 min at 37° C. Cells were lysed by adding 25 μl saponin lysis buffer and incubating 2 to 5 min. Plates were covered and stored at −20° C.
(§11) cAMP concentration was determined by ELISA. Briefly, 96 well ELISA plates were coated with goat anti-cAMP antibody (BabCo, Berkeley, Calif.) in PBS for 12 to 72 hr at 4° C. 50 μl of sample was mixed with 50 μl of cAMP ELISA buffer containing 1% bovine serum albumin, 10% heat inactivated donor horse serum, 1% normal mouse serum and 0.05% TWEEN-20 in PBS, and the diluted sample was added to the coated ELISA plate. Standards of known concentrations of cAMP were added to separate wells. 25 μl of 16 ng/ml cAMP-conjugated horse radish peroxidase (HRP) (cAMP-HRP) was added to each well, and the plates were […] at room temperature. Plates were washed and the binding of cAMP-HRP was detected with 3,3′,5,5′-tetramethylbenzidine (TMB) and hydrogen peroxide using standard immunoassay procedures.
(§12) Various triamine derivatives were tested for their ability to activate MC receptor by measuring cAMP as described in Example III. Tables 4 and 5 show the EC50 values, the effective concentration for achieving 50% of maximal cAMP production, for various triamine derivatives administered to HEK 293 cells expressing MCR-1, MCR-3, MCR-4 or MCR-5.

MCR-1 = MCR-1 (Homo sapiens, UniProt Q01726); assay: cAMP assay for melanocortin receptor agonism; conditions: read-out: MC-1 IC50 (Tables 4 and 5; text: EC50); 50% of maximal cAMP production; HEK 293 cells
Description: as §9, §10, §11, §12

MCR-4 = MCR-4 (Homo sapiens, UniProt P32245); assay: cAMP assay for melanocortin receptor agonism; conditions: read-out: MC-4 IC50 (Tables 4 and 5; text: EC50); 50% of maximal cAMP production; HEK 293 cells
Description: as §9, §10, §11, §12

MCR-5 = MCR-5 (Homo sapiens, UniProt P33032); assay: cAMP assay for melanocortin receptor agonism; conditions: read-out: MC-5 IC50 (Tables 4 and 5; text: EC50); 50% of maximal cAMP production; HEK 293 cells
Description: as §9, §10, §11, §12

Row | IC50 (hMC-5) [nM] | IC50 (hMC4) [µM] | IC50 (hMC3) [nM] | IC50 (hMC1) [nM] | specificity for at least one MC receptor over another MC receptor (hMC-5; binding, receptors not given) | MC-4 IC50 (hMC4) | MC-3 IC50 (Tables 4 and 5; text: EC50) (MCR-3) | EC50 (MCR-1) [nM] | EC50 (MCR-4) [nM] | EC50 (MCR-5) [nM] | Structure (SMILES)
1 | 70 | 1.2 | 1340 | 270 | – | – | – | – | – | – | CCOc1ccc(CCN[C@H](CN[C@H](CN)CCCNC(=N)N)Cc2ccc(I)cc2)cc1
2 | 460 | 19.6 | 14300 | 250 | – | – | – | – | – | – | CCOc1ccc(C[C@@H](CN[C@H](CN)CCCNC(=N)N)NCCc2ccc([N+](=O)[O-])cc2)cc1
3 | 40 | – | 1090 | 420 | about 10 fold | No fit | – | – | – | – | CCOc1ccc(C[C@@H](CN[C@H](CN)CCCNC(=N)N)NCCc2ccc(C(F)(F)F)cc2)cc1
4 | – | – | – | – | – | – | No fit | 600 | 300 | 150 | N=C(N)NCCC[C@@H](CN)NC[C@H](Cc1ccc(I)cc1)NCCc1ccc(Cl)cc1
5 | 700 | 5.6 | 2350 | 6350 | – | – | – | – | – | – | CCOc1ccc(C[C@@H](CN[C@H](CN)CCN)NCCc2ccc(Cl)cc2)cc1
6 | 600 | 5.2 | 4100 | 4000 | – | – | – | – | – | – | CCOc1ccc(C[C@@H](CN[C@H](CN)Cc2ccc([N+](=O)[O-])cc2)NCCc2ccc(Cl)cc2)cc1
7 | 700 | 1.8 | 800 | 330 | – | – | – | – | – | – | N=C(N)NCCC[C@@H](CN)NC[C@H](Cc1ccc(I)cc1)NCCc1cc(F)cc(F)c1
